According to patent publication US20050096347A1, “Beta3-Adrenoreceptor agonists, agonist compositions and methods of using” (Molecular Design International, Inc., priority 1997, published 2005):
Several values for one entry are separate records, joined by “and”; a condition that tells them apart may be missing. Identical values can stand only once.

By UniProt entry, the sequences of proteins in these tests, tags left out.
UniProt P08588, whole entry: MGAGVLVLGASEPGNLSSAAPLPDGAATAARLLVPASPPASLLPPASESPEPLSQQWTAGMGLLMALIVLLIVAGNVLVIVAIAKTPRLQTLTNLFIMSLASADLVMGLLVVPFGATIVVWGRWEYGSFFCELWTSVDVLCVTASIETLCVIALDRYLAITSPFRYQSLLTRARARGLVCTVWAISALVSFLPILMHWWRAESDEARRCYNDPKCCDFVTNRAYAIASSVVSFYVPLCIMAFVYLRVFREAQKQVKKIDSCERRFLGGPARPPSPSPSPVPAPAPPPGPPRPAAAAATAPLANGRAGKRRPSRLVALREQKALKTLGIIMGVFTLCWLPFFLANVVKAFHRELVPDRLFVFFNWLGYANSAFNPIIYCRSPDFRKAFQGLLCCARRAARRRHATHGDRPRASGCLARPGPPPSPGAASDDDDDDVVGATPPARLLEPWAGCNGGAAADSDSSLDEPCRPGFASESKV
UniProt P07550, whole entry: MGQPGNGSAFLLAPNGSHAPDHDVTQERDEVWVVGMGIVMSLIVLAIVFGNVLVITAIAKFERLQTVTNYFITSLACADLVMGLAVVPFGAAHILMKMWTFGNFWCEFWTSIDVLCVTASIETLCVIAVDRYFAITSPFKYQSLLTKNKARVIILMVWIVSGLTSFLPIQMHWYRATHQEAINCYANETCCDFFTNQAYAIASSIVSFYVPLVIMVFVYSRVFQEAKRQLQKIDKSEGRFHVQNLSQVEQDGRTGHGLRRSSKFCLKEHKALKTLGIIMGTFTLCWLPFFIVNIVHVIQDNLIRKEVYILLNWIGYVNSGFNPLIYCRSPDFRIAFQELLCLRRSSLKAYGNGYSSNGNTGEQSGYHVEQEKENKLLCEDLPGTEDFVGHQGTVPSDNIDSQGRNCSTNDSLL

Experiments:
human β1 Adrenoreceptor = human β1 Adrenoreceptor (Homo sapiens, UniProt P08588); assay: Radioligand competition binding, human β1 adrenoreceptor expressed in CHO cells ([125I]ICYP)
human β2 Adrenoreceptor = target: T1, human β2 Adrenoreceptor (Homo sapiens, UniProt P07550); assay: Radioligand competition binding, human β2 adrenoreceptor expressed in CHO cells ([125I]ICYP); conditions: [125I]ICYP as radioligand
T1 construct: expressed in transfected cells

COc1c(I)cc(CC2NCCc3cc(O)c(O)cc32)cc1I (stereo not shown) [Compound 2, reference compound]
pKi ± SEM, human β1 CHO (human β1 Adrenoreceptor; [125I]ICYP as radioligand, N = 4-9 (Table 2)): 7.10 ± 0.06 | pKi ± SEM, Human β2 Adrenoreceptor CHO (human β2 Adrenoreceptor; N = 4-9): 8.69 and 8.69 ± 0.16 | pKi ± SEM, human β2 CHO (human β2 Adrenoreceptor; N = 4-9 (Table 2)): 8.69 ± 0.16

COc1c(I)cc(CC2NCCc3cc(O)c(O)cc32)cc1I (stereo not shown) [drawing 80]
Ki (human β1 Adrenoreceptor): 25 nM
